Laboratory results taken from the supplement of paper PMC7840683.
± gives the standard deviation of the averaged measurements.

Test system: HepaRG
Test: LDH release cytotoxicity, % of total lysis control; higher = more cytotoxic
Details: 48 h
Procedure, shortened: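 Percent cytotoxicity was scaled between on-plate vehicle and total lysis controls, then averaged over duplicate wells. The cells were single-lot HepaRG on collagen I-coated 96-well plates, exposed for 48 h to eight-point half-log test chemical series topping at 100 µM in serum-free induction medium with 0.5% DMSO. Total lysis wells got 0.1% Triton X, and LDH in 50 µL spent medium was read as resorufin fluorescence (CytoTox-ONE, Tecan Safire).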

CCOc1nc(C(Cl)(Cl)Cl)ns1 [Etridiazole]
Details	LDH release cytotoxicity [%]
0.03162 µM	-0.0871 ± 1.1
0.1 µM	-2.12 ± 0.13
0.3162278 µM	-1.92 ± 0.4
1 µM	-1.68 ± 0.78
3.16228 µM	-1.93 ± 0.19
10 µM	-1.17 ± 0.19
31.6228 µM	-0.917 ± 0.87
100 µM	0.377 ± 0.5
